# Binding of CDR-mutated scFvs to a peptide of the spike HR2 region

The target is the same throughout: PDVDLGDISGINAS, from the HR2 region of SARS-CoV-2 spike.

The variants keep the light chain, the linker and the frameworks of Ab-14 (scFv order VH, the linker GGGGSGGGGSGGGGS, VL).
VH: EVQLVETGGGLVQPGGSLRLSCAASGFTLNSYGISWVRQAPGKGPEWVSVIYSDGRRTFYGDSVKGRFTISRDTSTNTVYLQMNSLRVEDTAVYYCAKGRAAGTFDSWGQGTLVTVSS
VL: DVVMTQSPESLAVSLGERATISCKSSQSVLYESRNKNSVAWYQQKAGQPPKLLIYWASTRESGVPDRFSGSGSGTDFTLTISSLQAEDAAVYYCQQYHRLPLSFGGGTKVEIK

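Phage display of a naive human antibody library on the peptide gave the parent. Designed CDR sequences, proposed from the first random library and measured here. Several design methods are mixed in this list. In AlphaSeq, yeast of one mating type display the scFv and yeast of the other type display the target. Binding brings cells together so that they mate, and sequencing counts the barcode pairs among the diploids. Scores were corrected for input abundance and mapped to Kd with protein pairs of known affinity run in the same pool. Mating was done six times.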

Sequences are complete VH domains.
The read-out is the apparent dissociation constant on a log10 scale (nM): the lower, the stronger.
A mean of the replicates is given; it leaves out those without a signal.
Where no diploid with the target was found in any replicate, the entry reads "no signal": below detection, most likely a poor binder, though not proof of it.
Order: sorted from the lowest average up, undetected variants last.
Of ten entries with the parent sequence, four were seen in most replicates (averages 0.34 to 2.37), three in one and three in none, so single entries are noisy.
The range of this assay differs from that of the first round, and the authors advise against merging the two.
The authors' rule: three or more of the six replicates give a measured affinity, fewer mean a poor binder.
Background: pairings of all heavy chain designs with three empty control strains gave a value in 1% of cases (median 2.08, 5th percentile 0.84). Values in that range, when seen in few replicates, are hard to tell from nonspecific mating. Also given: how often the same scFv was detected with the empty control strains.

VH	log10 Kd (nM), mean	replicates with signal	control signals
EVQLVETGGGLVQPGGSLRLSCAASGFNLEDYGISWVRQAPGKGPEWVSVIYADGQRTFYADSVKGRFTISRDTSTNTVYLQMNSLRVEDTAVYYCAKGEVAGTFDVWGQGTLVTVSS	-0.74	6/6	0/18
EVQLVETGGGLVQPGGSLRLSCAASGFDLNEYGISWVRQAPGKGPEWVSVIYADGVRTAYIDSVKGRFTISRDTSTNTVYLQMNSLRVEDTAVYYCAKGEVAGTFDVWGQGTLVTVSS	-0.52	6/6	0/18
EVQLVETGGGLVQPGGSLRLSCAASGFDLEEYGISWVRQAPGKGPEWVSVIYADGSRTAYADSVKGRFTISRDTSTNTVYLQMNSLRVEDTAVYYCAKGNVAGTFNSWGQGTLVTVSS	-0.46	6/6	0/18
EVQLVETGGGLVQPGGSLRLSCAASGFDLNEYGISWVRQAPGKGPEWVSVIYADGVRTAYSDDVKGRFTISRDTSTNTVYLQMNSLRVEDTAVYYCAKGNQAGTFDVWGQGTLVTVSS	-0.39	6/6	0/18
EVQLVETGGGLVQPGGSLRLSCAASGFDLNEYGISWVRQAPGKGPEWVSVIYADGMRKAYADSVKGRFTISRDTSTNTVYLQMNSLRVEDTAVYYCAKGEVAGTFDIWGQGTLVTVSS	-0.39	6/6	0/18
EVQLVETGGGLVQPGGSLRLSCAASKFKLNEYGISWVRQAPGKGPEWVSVIYSDGRRTFYGDSVKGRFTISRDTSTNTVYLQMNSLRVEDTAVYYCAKGRTAGTFDSWGQGTLVTVSS	0.08	6/6	0/18
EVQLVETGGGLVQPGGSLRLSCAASGFTLNEYGISWVRQAPGKGPEWVSVIYSDGRRTFYGDSVKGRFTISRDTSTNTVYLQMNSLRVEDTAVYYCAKGRAALTFIFWGQGTLVTVSS	0.23	6/6	0/18
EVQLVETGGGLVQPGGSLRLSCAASGFSLNSYGISWVRQAPGKGPEWVSVIYSDGRRTFYTDSVKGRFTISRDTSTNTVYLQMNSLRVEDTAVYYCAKGQAAGTFDSWGQGTLVTVSS	0.30	6/6	0/18
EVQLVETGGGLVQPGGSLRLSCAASGFPLNSYGISWVRQAPGKGPEWVSVIYSDGRRTAYGPSVKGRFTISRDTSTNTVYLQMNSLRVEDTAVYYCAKGRNAGTFDSWGQGTLVTVSS	1.24	6/6	0/18

Continued, with the values leading:

log10 Kd (nM), mean	replicates with signal	control signals	VH
1.49	2/6	0/18	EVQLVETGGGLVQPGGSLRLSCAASGFTLNSYGISWVRQAPGKGPEWVSVIYSDGWRTFYTDSVKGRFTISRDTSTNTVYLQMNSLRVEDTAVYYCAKGRAAGTFDSWGQGTLVTVSS
1.53	6/6	1/18	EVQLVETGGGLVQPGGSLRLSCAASGFELNSYGISWVRQAPGKGPEWVSVIYSDGKRTFYGDQVKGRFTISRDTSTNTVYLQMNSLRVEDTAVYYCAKGRQAGTFDSWGQGTLVTVSS
1.73	4/6	0/18	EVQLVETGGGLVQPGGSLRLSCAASGFSLNTYGISWVRQAPGKGPEWVSVIYSDGRRTFYGDSVKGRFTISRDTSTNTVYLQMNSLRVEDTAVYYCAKGRVAGTFDSWGQGTLVTVSS
2.44	1/6	0/18	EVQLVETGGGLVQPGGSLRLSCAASGFNIDEYGISWVRQAPGKGPEWVSVIYADGMRTAYSNAVKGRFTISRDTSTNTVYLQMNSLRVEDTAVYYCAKGIVNGDTFSWGQGTLVTVSS
no signal	0/6	0/18	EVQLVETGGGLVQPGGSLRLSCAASGNTLNSYGISWVRQAPGKGPEWVSVIYSDGRRTFYIDSTKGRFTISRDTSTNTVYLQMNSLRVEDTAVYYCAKGRGAGTPDSWGQGTLVTVSS
no signal	0/6	0/18	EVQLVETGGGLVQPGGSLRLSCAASGFELNSYGISWVRQAPGKGPEWVSVIYSDGRRTFMGDSVKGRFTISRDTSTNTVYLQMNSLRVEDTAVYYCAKGRAAATFDSWGQGTLVTVSS
no signal	0/6	0/18	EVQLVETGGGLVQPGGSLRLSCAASGFTLNDYGISWVRQAPGKGPEWVSVIYSDGRRTFYGQSVKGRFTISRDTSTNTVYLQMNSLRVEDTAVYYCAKGRASGTFDMWGQGTLVTVSS
no signal	0/6	0/18	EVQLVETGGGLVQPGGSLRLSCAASGMNLDEFGISWVRQAPGKGPEWVSVIYADGRRTAYSDEVKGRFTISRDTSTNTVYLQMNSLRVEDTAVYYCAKGEHGWFLTIWGQGTLVTVSS
no signal	0/6	1/18	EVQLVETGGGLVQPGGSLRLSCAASGFDLNEYGISWVRQAPGKGPEWVSVIYADGRRTQYIDSVKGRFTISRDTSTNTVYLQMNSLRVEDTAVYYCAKGHVAGTFDSWGQGTLVTVSS

The 2 strongest on average among those seen in every replicate, once more:

{"VH": "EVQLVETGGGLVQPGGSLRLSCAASGFNLEDYGISWVRQAPGKGPEWVSVIYADGQRTFYADSVKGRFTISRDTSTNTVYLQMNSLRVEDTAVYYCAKGEVAGTFDVWGQGTLVTVSS", "log10 Kd (nM), mean": "-0.74", "replicates with signal": "6/6", "control signals": "0/18"}
{"VH": "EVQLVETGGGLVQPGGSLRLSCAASGFDLNEYGISWVRQAPGKGPEWVSVIYADGVRTAYIDSVKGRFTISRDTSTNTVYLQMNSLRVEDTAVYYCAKGEVAGTFDVWGQGTLVTVSS", "log10 Kd (nM), mean": "-0.52", "replicates with signal": "6/6", "control signals": "0/18"}

The measurements come from Li et al. 2023 (doi:10.1038/s41467-023-39022-2) through the FLAb antibody collection.